Measurements: US5736528A, “N^6 -(epoxynorborn-2-yl) adenosines as A1 adenosine receptor agonists” (priority 1995, dated 1998)

Protein sequences, listed by entry. Tags and fused reporters are not part of them.
UniProt P46616, whole entry: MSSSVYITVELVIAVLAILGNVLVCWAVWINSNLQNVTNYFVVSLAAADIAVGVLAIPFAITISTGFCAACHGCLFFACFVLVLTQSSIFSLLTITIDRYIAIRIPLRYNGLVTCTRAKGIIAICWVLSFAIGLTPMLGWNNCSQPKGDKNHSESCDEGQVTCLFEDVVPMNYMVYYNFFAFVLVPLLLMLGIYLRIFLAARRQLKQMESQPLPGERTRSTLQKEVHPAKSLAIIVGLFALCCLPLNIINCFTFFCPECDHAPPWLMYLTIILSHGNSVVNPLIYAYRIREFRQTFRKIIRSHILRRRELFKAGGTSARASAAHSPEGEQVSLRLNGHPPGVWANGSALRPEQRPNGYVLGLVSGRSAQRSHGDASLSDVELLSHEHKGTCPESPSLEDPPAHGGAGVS
UniProt P47745, whole entry: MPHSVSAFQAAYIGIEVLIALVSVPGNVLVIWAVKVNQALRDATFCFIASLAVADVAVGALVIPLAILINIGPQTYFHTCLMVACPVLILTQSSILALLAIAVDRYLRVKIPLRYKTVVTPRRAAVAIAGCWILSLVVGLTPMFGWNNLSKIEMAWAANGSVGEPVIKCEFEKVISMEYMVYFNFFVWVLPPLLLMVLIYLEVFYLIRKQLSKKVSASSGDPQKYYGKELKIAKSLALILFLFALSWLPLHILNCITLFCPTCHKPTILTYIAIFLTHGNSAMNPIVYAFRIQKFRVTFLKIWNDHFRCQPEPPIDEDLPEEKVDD
UniProt P25099, whole entry: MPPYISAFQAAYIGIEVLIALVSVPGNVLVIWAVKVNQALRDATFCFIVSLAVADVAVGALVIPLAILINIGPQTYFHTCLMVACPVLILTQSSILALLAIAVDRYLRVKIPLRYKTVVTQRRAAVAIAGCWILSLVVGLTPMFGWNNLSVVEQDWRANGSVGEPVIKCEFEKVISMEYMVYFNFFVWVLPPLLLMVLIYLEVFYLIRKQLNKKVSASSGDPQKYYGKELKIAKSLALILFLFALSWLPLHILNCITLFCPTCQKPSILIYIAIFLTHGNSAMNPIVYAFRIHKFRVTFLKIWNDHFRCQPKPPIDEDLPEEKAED

Columns and labels:
A2 receptor = molecular target: T1, A2 receptor (Cavia porcellus, UniProt P46616); test: Antagonism of A2 receptor-mediated coronary vasodilation (coronary conductance) caused by adenosine, isolated perfused heart; parameters: species or system guinea pig; conditions: ENX 0.4 μM with adenosine 4 μM
T1 construct: isolated perfused guinea pig heart; from tissue; host or cells: isolated perfused guinea pig heart (coronary circulation)
Description: . The values are the mean±SEM from five guinea pig hearts. […]
1. Functional studies. […]
Potency of various alkylxanthines to antagonize A2
of a maximum coronary vasodilation caused by adenosine. Values in […]

A1 receptor = molecular target: T2, A1 receptor (Cavia porcellus, UniProt P47745); test: Antagonism of A1 receptor-mediated negative dromotropic effect (S-H interval prolongation) of CCPA, Schild analysis, isolated perfused heart; parameters: species or system guinea pig; conditions: vs NAX and CPX
T2 construct: isolated perfused guinea pig heart; from tissue; host or cells: isolated perfused guinea pig heart

[1] = molecular target: T3, rat brain adenosine A1 receptors (Rattus norvegicus, UniProt P25099); test: Antagonism of radioligand binding to rat brain adenosine A1 receptors; conditions: for Selectivity (A1 vs A2): rat brain
T3 construct: rat brain A1 adenosine receptors; from tissue; host or cells: rat brain

A1 adenosine receptor [2] = molecular target: A1 adenosine receptor (Cavia porcellus, UniProt P47745); test: A1 receptor binding with [3H]CPX in forebrain membranes (Table 5); parameters: guinea pig forebrain (A1 receptor); from tissue; host or cells: guinea pig forebrain membranes; species or system guinea pig
[3] = tested on: serum cholesterol and heparin precipitating β-lipoproteins; test: Serum cholesterol and heparin precipitating β-lipoproteins in mice; assay type: in vivo; conditions: 100 mg/kg per os
A1 adenosine receptor [4] = molecular target: T4, A1 adenosine receptor (Rattus norvegicus, UniProt P25099); test: Biological activity and duration of action of ENX enantiomers; assay type: in vivo; conditions: S- vs R-enantiomer
T4 construct: from tissue; host or cells: whole animal

Row | SMILES | effect on A2-mediated coronary vasodilation caused by adenosine (A2 receptor) | A1 vs A2 functional selectivity (comparison) (A1 receptor) | Selectivity (A1 vs A2) [1] | selectivity for A1 vs. A2 (A1 adenosine receptor [2]) [fold] | Ratio A1/A2 (A1 adenosine receptor [2]; guinea pig, forebrain vs striatum membranes) | HPL/CHOL ratio [3] | potency in vivo relative to other enantiomer (A1 adenosine receptor [4]) | binding selectivity for A1 vs A2 ([1]; S- vs R-enantiomer)
1 | CCCn1c(=O)c2[nH]c(C3CC4CC3C3OC43)nc2n(CCC)c1=O (racemic) [ENX, 1,3-dipropyl-8-{3-oxatricyclo[3.1.2.0^2,4]oct-6(7)-yl}-xanthine] | remained unaltered | far more selective than NAX and CPX | 1300 | 800 | 800 | – | – | –
2 | CCCn1c(=O)c2[nH]c([C@@H]3C[C@H]4C[C@@H]3[C@@H]3O[C@H]43)nc2n(CCC)c1=O [R-ENX] | – | – | 960 | – | – | – | – | –
3 | CCCn1c(=O)c2[nH]c([C@H]3C[C@@H]4C[C@H]3[C@H]3O[C@@H]43)nc2n(CCC)c1=O [S-ENX] | – | – | 7800 | – | – | below 0.92 | substantially higher potency in vivo | higher binding selectivity for the A1 receptor
